Experimental data from patent US9765068B2, “PRMT5 inhibitors and uses thereof” (Epizyme, Inc., priority 2012, dated 2017).

Protein sequences, listed by entry. Tags and fused reporters are not part of them. Chains listed by the source or under a name are the forms on record and can include a tag or linker.
UniProt O14744, other isoform, or with tags, fused parts or gaps: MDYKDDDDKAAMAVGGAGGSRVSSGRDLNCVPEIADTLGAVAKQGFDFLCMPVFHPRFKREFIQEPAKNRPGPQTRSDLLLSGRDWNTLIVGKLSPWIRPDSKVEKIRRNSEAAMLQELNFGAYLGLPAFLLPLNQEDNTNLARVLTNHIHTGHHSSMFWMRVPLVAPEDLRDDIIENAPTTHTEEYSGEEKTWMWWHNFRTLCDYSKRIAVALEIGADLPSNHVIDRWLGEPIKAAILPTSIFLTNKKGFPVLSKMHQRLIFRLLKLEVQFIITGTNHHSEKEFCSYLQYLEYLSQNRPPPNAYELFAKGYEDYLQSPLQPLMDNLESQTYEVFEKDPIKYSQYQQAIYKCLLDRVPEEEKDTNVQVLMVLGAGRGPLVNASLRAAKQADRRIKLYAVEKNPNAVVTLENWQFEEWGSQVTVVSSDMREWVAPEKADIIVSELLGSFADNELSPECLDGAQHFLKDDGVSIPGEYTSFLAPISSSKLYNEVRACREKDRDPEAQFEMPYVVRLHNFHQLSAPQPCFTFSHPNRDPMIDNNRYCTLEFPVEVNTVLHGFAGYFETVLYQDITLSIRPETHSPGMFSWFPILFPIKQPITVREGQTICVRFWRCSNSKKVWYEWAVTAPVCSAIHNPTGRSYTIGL

Target: PRMT5/MEP50 (Homo sapiens (Human), UniProt O14744)
Assay: PRMT5 Biochemical Assay (PRMT5/MEP50 enzyme assay on peptide substrate, 3H-SAM Flashplate)
Details: PRMT5/MEP50 4 nM, 3H-SAM 75 nM, peptide 40 nM
Text: General Materials. S-adenosylmethionine (SAM), S-adenosylhomocysteine (SAH), bicine, KCl, Tween20, dimethylsulfoxide (DMSO), bovine skin gelatin (BSG), and Tris(2-carboxyethyl)phosphine hydrochloride solution (TCEP) were purchased from Sigma-Aldrich at the highest level of purity possible. ^3H-SAM was purchase from American Radiolabeled Chemicals with a specific activity of 80 Ci/mmol. 384-well streptavidin Flashplates were purchased from PerkinElmer.
Substrates. Peptide representative of human histone H4 residues 1-15 was synthesized with a C-terminal linker-affinity tag motif and a C-terminal amide cap by 21st Century Biochemicals. […] The sequence was Ac-[…][K-Biot]-amide (SEQ ID NO.:3).
Full-length human MEP50 (NM_024102) clone was amplified from a human testis cDNA library incorporating a 5′ sequence encoding a 6-histidine tag (MHHHHHH) (SEQ ID NO.:5) fused directly to Arg 2 of MEP50. […]
The assays were all performed in a buffer consisting of 20 mM Bicine (pH=7.6), 1 mM TCEP, 0.005% BSG, and 0.002% Tween20, prepared on the day of use. […] The plates were then read in a PerkinElmer TopCount plate reader to measure the quantity of ^3H-labeled peptide bound to the Flashplate surface, measured as disintegrations per minute (dpm) or alternatively, referred to as counts per minute (cpm). […]

Work on `N[C@H](C(=O)NC[C@@H](O)CN1CCc2ccccc2C1)c1ccccc1` [Compound 63] yielded an IC50 of 10 to 50 µM.
